This series in a line: soluble on expression in E. coli; label from the status in PepcDB or PDB records.

From the DeepSol protein solubility set come the findings set out here.

For the sequence “MGHHHHHHSHMEQANPLRPDGESKGGVLAHLERLETQVSRSRKQSEELQSVQAQEGALGTKIHKLRRLRDELRAVVRHRRASVKACIANVEPNQTVEINEQEALEEKLENVKAILQAYHFTGLSGKLTSRGVCVCISTAFEGNLLDSYFVDLVIQKPLRIHHHSVPVFIPLEEIAAKYLQTNIQHFLFSLCEYLNAYSGRKYQADRLQSDFAALLTGPLQRNPLCNLLSFTYKLDPGGQSFPFCARLLYKDLTATLPTDVTVTCQGVEVLSTSWEEQRASHETLFCTKPLHQVFASFTRKGEKLDMSLVS”, the “soluble on expression in E. coli” value was “not soluble”.
On to “MSQSKHTEARELMYSGALLFFSHGQQNSAADLSMLVLESLEKAEVEVADELLENLAKVFSLMDPNSPERVTFVSRALKWSSGGSGKLGHPRLHQLLALTLWKEQNYCESRYHFLHSADGEGCANMLVEYSTSRGFRSEVDMFVAQAVLQFLCLKNKSSASVVFTTYTQKHPSIEDGPPFVEPLLNFIWFLLLAVDGGKLTVFTVLCEQYQPSLRRDPMYNEYLDRIGQLFFGVPPKQTSSYGGLLGNLLTSLMGSSEQEDGEESPSDGSPIELD”, for which the “soluble on expression in E. coli” value is “not soluble”.
